As usually defined, the IC50 is the point on the concentration scale where inhibition reaches its midpoint. A low value points to greater potency in that assay.

The values that follow come from ChEMBL document CHEMBL1144897, “A potent, selective inhibitor of matrix metalloproteinase-3 for the topical treatment of chronic dermal ulcers” (J Med Chem, 2003).

The target of this test is T1, Interstitial collagenase (Homo sapiens, UniProt P03956).
T1 sequence (P03956 whole entry): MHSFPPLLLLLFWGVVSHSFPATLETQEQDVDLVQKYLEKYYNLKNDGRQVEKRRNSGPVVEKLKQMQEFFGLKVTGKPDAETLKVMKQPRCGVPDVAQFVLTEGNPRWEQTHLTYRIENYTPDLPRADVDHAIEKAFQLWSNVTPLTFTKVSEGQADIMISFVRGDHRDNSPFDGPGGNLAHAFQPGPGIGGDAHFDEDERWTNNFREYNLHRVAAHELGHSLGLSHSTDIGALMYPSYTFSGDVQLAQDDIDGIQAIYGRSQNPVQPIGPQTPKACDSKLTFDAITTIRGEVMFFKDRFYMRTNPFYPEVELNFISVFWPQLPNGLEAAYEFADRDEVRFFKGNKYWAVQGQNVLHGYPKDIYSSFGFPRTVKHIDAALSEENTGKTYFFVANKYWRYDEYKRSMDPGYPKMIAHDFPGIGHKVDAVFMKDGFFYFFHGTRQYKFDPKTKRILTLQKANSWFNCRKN
The test is described as follows: Inhibition of human Matrix metalloprotease-1 (MMP-1).

`CNC(=O)[C@H](Cc1ccc(OC)cc1)NC(=O)[C@@H](CC(=O)NO)CC(C)C` registered an IC50 of 20 nM.
